Measured values published in patent US20140135319A1, “6-SUBSTITUTED IMIDAZOPYRAZINES FOR USE AS MPS-1 AND TKK INHIBITORS IN THE TREATMENT OF HYPERPROLIFERATIVE DISORDERS” (BAYER INTELLECTUAL PROPERTY GMBH, priority 2010, published 2014).

Amino acid sequences for entries named in this document (tags omitted).
UniProt P33981, whole entry: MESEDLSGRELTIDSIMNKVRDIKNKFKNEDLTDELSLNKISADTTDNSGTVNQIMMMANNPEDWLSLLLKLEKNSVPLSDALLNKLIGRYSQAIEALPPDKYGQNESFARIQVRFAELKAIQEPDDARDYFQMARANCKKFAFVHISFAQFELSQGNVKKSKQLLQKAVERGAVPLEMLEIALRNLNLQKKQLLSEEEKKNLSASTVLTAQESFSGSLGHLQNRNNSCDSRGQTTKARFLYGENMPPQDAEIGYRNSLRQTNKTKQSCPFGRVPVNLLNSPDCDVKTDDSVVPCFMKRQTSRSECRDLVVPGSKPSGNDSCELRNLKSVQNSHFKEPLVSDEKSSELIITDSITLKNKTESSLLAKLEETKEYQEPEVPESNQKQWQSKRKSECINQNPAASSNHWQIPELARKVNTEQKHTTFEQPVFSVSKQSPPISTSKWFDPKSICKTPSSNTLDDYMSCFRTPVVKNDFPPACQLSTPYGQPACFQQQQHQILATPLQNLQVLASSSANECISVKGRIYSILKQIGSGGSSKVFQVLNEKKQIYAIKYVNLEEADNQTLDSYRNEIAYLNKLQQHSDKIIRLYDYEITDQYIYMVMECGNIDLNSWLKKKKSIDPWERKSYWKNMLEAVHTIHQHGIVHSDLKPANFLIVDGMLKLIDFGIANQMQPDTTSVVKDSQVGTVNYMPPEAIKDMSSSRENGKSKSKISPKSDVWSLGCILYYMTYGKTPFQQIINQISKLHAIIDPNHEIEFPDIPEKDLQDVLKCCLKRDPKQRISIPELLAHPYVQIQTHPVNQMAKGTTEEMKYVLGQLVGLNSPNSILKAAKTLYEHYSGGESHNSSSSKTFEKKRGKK

Target: human kinase Mps-1 (Homo sapiens, UniProt P33981)
Assay: Mps-1 kinase assay (TR-FRET)
Settings: read-out: Mps-1 IC50; GST-tagged human full length recombinant Mps-1; 10 μM ATP; 1 μM peptide substrate; 60 min at 22° C.

- IC50: 1 nM
SMILES: CC(C)CNc1nc(-c2cccc(CC(N)=O)c2)cn2c(-c3ccc(C(=O)NC4CC4)cc3)cnc12
